Assay results: ChEMBL document CHEMBL4364248, “Discovery of 1,2,4-oxadiazole-Containing hydroxamic acid derivatives as histone deacetylase inhibitors potential application in cancer therapy” (Eur J Med Chem, 2019)

Biological target: T1, Histone deacetylase 8 (Homo sapiens, UniProt Q9BY41)
T1 sequence (Q9BY41 whole entry): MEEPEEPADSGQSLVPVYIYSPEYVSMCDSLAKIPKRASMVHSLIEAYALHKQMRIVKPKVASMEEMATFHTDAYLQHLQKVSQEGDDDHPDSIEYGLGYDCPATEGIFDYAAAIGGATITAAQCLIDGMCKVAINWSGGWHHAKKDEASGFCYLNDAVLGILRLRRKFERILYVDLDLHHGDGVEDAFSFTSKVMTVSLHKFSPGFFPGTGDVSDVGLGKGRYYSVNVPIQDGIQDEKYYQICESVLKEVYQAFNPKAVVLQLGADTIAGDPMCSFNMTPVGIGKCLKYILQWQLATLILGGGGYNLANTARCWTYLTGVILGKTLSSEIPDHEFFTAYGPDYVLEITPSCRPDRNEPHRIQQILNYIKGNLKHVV
Test: Inhibition of recombinant full length C-terminal His-tagged human HDAC8 expressed in baculovirus infected in Sf9 cells using Ac-peptide-AMC as substrate after 1 hr by fluorescence assay

O=C(CCCCCCC(=O)Nc1ccccc1)NO [VORINOSTAT]
IC50: 0.682 µM
